What follows are compounds tested against hP2X7 (Homo sapiens, UniProt Q99572) (assay: P2X7 antagonism: ligand-induced Ca2+ flux in 1321N1 astrocytoma cells overexpressing hP2X7). Settings: pIC50 = -log(IC50).

Chains of the proteins cited; added tags and fusions are not shown.
UniProt Q99572, whole entry: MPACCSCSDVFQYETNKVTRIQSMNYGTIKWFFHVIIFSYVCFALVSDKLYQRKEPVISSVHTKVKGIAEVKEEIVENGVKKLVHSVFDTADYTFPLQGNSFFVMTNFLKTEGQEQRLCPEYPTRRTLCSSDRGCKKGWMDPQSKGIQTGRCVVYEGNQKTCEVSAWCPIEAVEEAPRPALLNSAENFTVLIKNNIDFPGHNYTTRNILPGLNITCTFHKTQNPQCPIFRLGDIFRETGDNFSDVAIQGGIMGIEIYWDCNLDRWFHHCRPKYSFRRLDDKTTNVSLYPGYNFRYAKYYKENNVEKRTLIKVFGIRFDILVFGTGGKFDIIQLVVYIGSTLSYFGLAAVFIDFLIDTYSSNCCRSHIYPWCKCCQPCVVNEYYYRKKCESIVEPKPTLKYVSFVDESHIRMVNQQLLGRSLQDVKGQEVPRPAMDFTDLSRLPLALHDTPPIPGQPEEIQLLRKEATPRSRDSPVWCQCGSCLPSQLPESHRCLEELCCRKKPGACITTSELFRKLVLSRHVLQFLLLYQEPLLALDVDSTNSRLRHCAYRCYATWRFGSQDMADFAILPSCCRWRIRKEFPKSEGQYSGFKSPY

hP2RX7pIC50 (mean pIC50 values)	Structure (SMILES)
6.67	CC(C)(C)OC(=O)NC1CCN(c2ccc3c(C(=O)NCC(c4cnc(C(F)(F)F)nc4)N4CCC(F)(F)CC4)cccc3n2)CC1 (centres unmarked)
7.48	O=C(NCC(c1ccc(C(F)(F)F)nc1)N1CCC(F)(F)CC1)c1cccc2nc(N3CCOCC3)ccc12 (centres unmarked)
7.33	O=C(NCC(c1cnc(C(F)(F)F)nc1)N1CCOCC1)c1cccc2nc(N3CCOCC3)ccc12 (single isomer, unassigned) [80]
7.19	O=C(NCC(c1cnc(C(F)(F)F)nc1)N1CCC(F)(F)CC1)c1cccc2nc(N3CCCCC3)ccc12 (centres unmarked)
5.91	O=C(NCC(c1ccc(C(F)(F)F)nc1)N1CCC(F)(F)CC1)c1ccc2ncccc2c1 (centres unmarked)
7.38	O=C(NCC(c1cnc(C(F)(F)F)nc1)N1CCC(F)(F)CC1)c1cccc2nc(N3CCCOCC3)ccc12 (centres unmarked)
7.47	O=C(NCC(c1cnc(C(F)(F)F)nc1)N1CCC(F)(F)CC1)c1cccc2nc(NCCCO)ccc12 (single isomer, unassigned) [69]
6.61	CC1CCCN(c2ccc3c(C(=O)NCC(c4cnc(C(F)(F)F)nc4)N4CCC(F)(F)CC4)cccc3n2)C1 (centres unmarked)
7.49	O=C(NCC(c1cnc(C(F)(F)F)nc1)N1CCCCCC1)c1cccc2nc(NCCO)ccc12 (centres unmarked)
7.33	O=C(NCC(c1cnc(C(F)(F)F)nc1)N1CCC(F)(F)CC1)c1cccc2nc(NCCO)ccc12 (single isomer, unassigned) [68]
7.45	O=C(NCC(c1cnc(C(F)(F)F)nc1)N1CCC(F)(F)CC1)c1cccc2nc(NC3CCC3)ccc12 (single isomer, unassigned)
7.44	O=C(NCC(c1cnc(C(F)(F)F)nc1)N1CCC(F)(F)CC1)c1cccc2nc(N3CCN(CCO)CC3)ccc12 (centres unmarked)
6.76	O=C(NCC(c1cnc(C(F)(F)F)nc1)N1CCOCC1)c1cccc2nc(NC3CCOCC3)ccc12 (centres unmarked)
7.47	O=C(NCC(c1cnc(C(F)(F)F)nc1)N1CCCC(F)(F)C1)c1cccc2nc(NCCO)ccc12 (centres unmarked)
7.03	O=C(NCC(c1cnc(C(F)(F)F)nc1)N1CCOCC1)c1cccc2nc(NCC3CCCO3)ccc12 (centres unmarked)
7.44	O=C(NCC(c1cnc(C(F)(F)F)nc1)N1CCCCCC1)c1cccc2nc(N3CC(O)C3)ccc12 (centres unmarked)
7.21	C[C@@H]1CN(c2ccc3c(C(=O)NC[C@H](c4cnc(C(F)(F)F)nc4)N4CCC(F)(F)CC4)cccc3n2)C[C@H](C)N1
7.41	Cc1ccc2c(C(=O)NCC(c3cnc(C(F)(F)F)nc3)N3CCC(F)(F)CC3)cccc2n1 (centres unmarked)
7.48	O=C(NCC(c1cnc(C(F)(F)F)nc1)N1CCCCCC1)c1cccc2nc(N3CCOCC3)ccc12 (centres unmarked)
7.03	O=C(NCC(c1ccc(C(F)(F)F)nc1)N1CCC(F)(F)CC1)c1cnc2ccccc2c1 (centres unmarked)
7.49	NC1CCN(c2ccc3c(C(=O)NCC(c4cnc(C(F)(F)F)nc4)N4CCC(F)(F)CC4)cccc3n2)CC1 (centres unmarked)
7.22	O=C(NCC(c1cnc(C(F)(F)F)nc1)N1CCCOCC1)c1cccc2ncccc12 (centres unmarked)
7.4	COc1ncc(C(CNC(=O)c2cccc3nc(N4CCOCC4)ccc23)N2CCC(F)(F)CC2)cn1 (centres unmarked)
7.54	CCNc1ccc2c(C(=O)NCC(c3cnc(C(F)(F)F)nc3)N3CCC(F)(F)CC3)cccc2n1 (centres unmarked)
7.23	CCN1CCN(c2ccc3c(C(=O)NCC(c4cnc(C(F)(F)F)nc4)N4CCOCC4)cccc3n2)CC1 (centres unmarked)

hP2RX7pIC50 (mean pIC50 values)	Structure (SMILES)
7.02	O=C(NCC(c1cnc(C(F)(F)F)nc1)N1CCOCC1)c1cccc2nc(NCCO)ccc12 (centres unmarked)
7.41	CCOc1ccc2c(C(=O)NCC(c3cnc(C(F)(F)F)nc3)N3CCC(F)(F)CC3)cccc2n1 (centres unmarked)
7.23	O=C(NCC(c1cnc(C(F)(F)F)nc1)N1CCOCC1)c1cccc2nc(NCC(F)(F)F)ccc12 (centres unmarked)
7.54	Nc1ccc2c(C(=O)NCC(c3cnc(C(F)(F)F)nc3)N3CCC(F)(F)CC3)cccc2n1 (centres unmarked)
7.2	O=C(NCC(c1cnc(C(F)(F)F)nc1)N1CCC(F)(F)CC1)c1cccc2nc(NCc3ccccc3)ccc12 (centres unmarked)
7.55	COCCCNc1ccc2c(C(=O)NCC(c3cnc(C(F)(F)F)nc3)N3CCC(F)(F)CC3)cccc2n1 (centres unmarked)
7.3	CCNc1ccc2c(C(=O)NCC(c3cnc(C(F)(F)F)nc3)N3CCOCC3)cccc2n1 (centres unmarked)
6.81	O=C(NCC(c1cnc(C(F)(F)F)nc1)N1CCCOCC1)c1cccc2nc(NC3CCOCC3)ccc12 (centres unmarked)
5.99	Cc1ncc(C(CNC(=O)c2cccc3ncccc23)N2CCOCC2)cn1 (centres unmarked)
5.17	O=C(NCC(c1ccc(C(F)(F)F)nc1)N1CCN(c2ccccc2)CC1)c1cccc2ncccc12 (centres unmarked)
7.29	O=C(NCC(c1cnc(C(F)(F)F)nc1)N1CCOCC1)c1cccc2nc(N3CCOCC3)ccc12 (single isomer, unassigned) [111]
7.55	CNc1ccc2c(C(=O)NCC(c3cnc(C(F)(F)F)nc3)N3CCC(F)(F)CC3)cccc2n1 (centres unmarked)
7.41	COCCNc1ccc2c(C(=O)NCC(c3cnc(C(F)(F)F)nc3)N3CCC(F)(F)CC3)cccc2n1 (centres unmarked)
7.46	CN(C)c1ccc2c(C(=O)NCC(c3cnc(C(F)(F)F)nc3)N3CCC(F)(F)CC3)cccc2n1 (centres unmarked)
6.43	Cc1ncc(C(CNC(=O)c2cccc3nc(N4C[C@@H](C)O[C@@H](C)C4)ccc23)N2CCOCC2)cn1 (some centres unmarked)
7.52	O=C(NCC(c1cnc(C(F)(F)F)nc1)N1CCC(F)(F)CC1)c1cccc2nc(N3CCNCC3)ccc12 (centres unmarked) [Compound 78]
7.37	CN(CCO)c1ccc2c(C(=O)NCC(c3cnc(C(F)(F)F)nc3)N3CCC(F)(F)CC3)cccc2n1 (centres unmarked)
7.53	O=C(NCC(c1cnc(C(F)(F)F)nc1)N1CCCC(F)(F)C1)c1cccc2nc(N3CCOCC3)ccc12 (centres unmarked)
7.32	O=C(NCC(c1ccc(C(F)(F)F)nc1)N1CCOCC1)c1cccc2nc(N3CCOCC3)ccc12 (centres unmarked)
7.4	O=C(NCC(c1cnc(C(F)(F)F)nc1)N1CCC(F)(F)CC1)c1cccc2nc(N3CCCC3)ccc12 (centres unmarked)
7.34	O=C(NCC(c1cnc(C(F)(F)F)nc1)N1CCOCC1)c1cccc2nc(Cl)ccc12 (centres unmarked)
5.59	O=C(NCC(c1ccc(C(F)(F)F)nc1)N1CCS(=O)(=O)CC1)c1cccc2ncccc12 (centres unmarked)
5.1	COC1CCCN(C(CNC(=O)c2cccc3ncccc23)c2cnc(C(F)(F)F)nc2)C1 (centres unmarked)
7.4	O=C(NCC(c1cnc(C(F)(F)F)nc1)N1CCOCC1)c1cccc2ncccc12 (centres unmarked)
6.74	O=C(NCC(c1ccc(C(F)(F)F)nc1)N1CCC(F)(F)C1)c1cccc2ncccc12 (centres unmarked)

hP2RX7pIC50 (mean pIC50 values)	Structure (SMILES)
7.48	O=C(NCC(c1cnc(C(F)(F)F)nc1)N1CCC(F)(F)CC1)c1cccc2ncccc12 (centres unmarked)
7.3	O=C(NCC(c1cnc(C(F)(F)F)nc1)N1CCOCC1)c1cccc2nc(N3CCOCC3)ccc12 (single isomer, unassigned) [110]
6.62	CC(C)(C)OC(=O)N1CCN(c2ccc3c(C(=O)NCC(c4cnc(C(F)(F)F)nc4)N4CCC(F)(F)CC4)cccc3n2)CC1 (centres unmarked)
7.45	CCN1CCN(c2ccc3c(C(=O)NCC(c4cnc(C(F)(F)F)nc4)N4CCC(F)(F)CC4)cccc3n2)CC1 (centres unmarked)
7.44	O=C(NCC(c1cnc(C(F)(F)F)nc1)N1CCC(F)(F)CC1)c1cccc2nc(NCCO)ccc12 (single isomer, unassigned) [67]
7.39	O=C(NCC(c1cnc(C(F)(F)F)nc1)N1CCCC(F)(F)C1)c1cccc2nc(N3CC(O)C3)ccc12 (centres unmarked)
7.06	O=C(NCC(c1cnc(C(F)(F)F)nc1)N1CCCOCC1)c1cccc2nc(N3CC(O)C3)ccc12 (centres unmarked)
7.35	O=C(NCC(c1cnc(C(F)(F)F)nc1)N1CCOCC1)c1cccc2nc(NCC3CC3)ccc12 (centres unmarked)
7.32	O=C(NCC(c1cnc(C(F)(F)F)nc1)N1CCC(F)(F)CC1)c1cccc2nc(N3CCCC(O)C3)ccc12 (centres unmarked)
7.07	O=C(NCC(c1cnc(C(F)(F)F)nc1)N1CCC(F)(F)CC1)c1cccc2nc(NC3CCOCC3)ccc12 (centres unmarked)
7.46	O=C(NCC(c1cnc(C(F)(F)F)nc1)N1CCC(F)(F)CC1)c1cccc2nc(NC3CC3)ccc12 (single isomer, unassigned) [143]
7.37	COCCN(C)c1ccc2c(C(=O)NCC(c3cnc(C(F)(F)F)nc3)N3CCC(F)(F)CC3)cccc2n1 (centres unmarked)
6.84	Cc1ncc(C(CNC(=O)c2cccc3ncccc23)N2CCC(F)(F)CC2)cn1 (centres unmarked)
7.38	CC(C)Nc1ccc2c(C(=O)NCC(c3cnc(C(F)(F)F)nc3)N3CCC(F)(F)CC3)cccc2n1 (centres unmarked)
7.4	O=C(NCC(c1cnc(C(F)(F)F)nc1)N1CCC(F)(F)CC1)c1cccc2nc(NC[C@H]3CCCO3)ccc12 (some centres unmarked)
7.42	O=C(NCC(c1cnc(C(F)(F)F)nc1)N1CCC(F)(F)CC1)c1cccc2nc(NCCN3CCOCC3)ccc12 (centres unmarked)
6.05	O=C(NCC(c1cccnc1)N1CCC(F)(F)CC1)c1cccc2ncccc12 (centres unmarked)
6.99	O=C(NCC(c1cnc(C(F)(F)F)nc1)N1CCOCC1)c1cccc2nc(N3CC(O)C3)ccc12 (centres unmarked)
7.47	CCOCCNc1ccc2c(C(=O)NCC(c3cnc(C(F)(F)F)nc3)N3CCC(F)(F)CC3)cccc2n1 (centres unmarked)
7.28	CC(C)(C)OC(=O)N1CCN(c2ccc3c(C(=O)NCC(c4cnc(C(F)(F)F)nc4)N4CCCOCC4)cccc3n2)CC1 (centres unmarked)
6.86	CC1CN(c2ccc3c(C(=O)NCC(c4cnc(C(F)(F)F)nc4)N4CCOCC4)cccc3n2)CC(C)O1 (centres unmarked)
7.34	CCN1CCN(c2ccc3c(C(=O)NCC(c4cnc(C(F)(F)F)nc4)N4CCCOCC4)cccc3n2)CC1 (centres unmarked)
7	O=C(NCC(c1cnc(C(F)(F)F)nc1)N1CCOCC1)c1cccc2nc(NCCCO)ccc12 (centres unmarked)
7.41	CC1CN(c2ccc3c(C(=O)NCC(c4cnc(C(F)(F)F)nc4)N4CCCC(F)(F)C4)cccc3n2)CCO1 (centres unmarked)

From patent US8431704B2, “Quinoline or isoquinoline substituted P2X7 antagonists” (Janssen Pharmaceutica NV, priority 2008, dated 2013)
